Source: publication PMC11505200, “Exploring the 3,5-Dibromo-4,6-dimethoxychalcones and Their Flavone Derivatives as Dual α-Glucosidase and α-Amylase Inhibitors with Antioxidant and Anticancer Potential” (Antioxidants, 2024)

Chains of the proteins cited; added tags and fusions are not shown. Lines headed by an entry give the natural chain unless they say otherwise; changes in a name come on top.
UniProt P53341: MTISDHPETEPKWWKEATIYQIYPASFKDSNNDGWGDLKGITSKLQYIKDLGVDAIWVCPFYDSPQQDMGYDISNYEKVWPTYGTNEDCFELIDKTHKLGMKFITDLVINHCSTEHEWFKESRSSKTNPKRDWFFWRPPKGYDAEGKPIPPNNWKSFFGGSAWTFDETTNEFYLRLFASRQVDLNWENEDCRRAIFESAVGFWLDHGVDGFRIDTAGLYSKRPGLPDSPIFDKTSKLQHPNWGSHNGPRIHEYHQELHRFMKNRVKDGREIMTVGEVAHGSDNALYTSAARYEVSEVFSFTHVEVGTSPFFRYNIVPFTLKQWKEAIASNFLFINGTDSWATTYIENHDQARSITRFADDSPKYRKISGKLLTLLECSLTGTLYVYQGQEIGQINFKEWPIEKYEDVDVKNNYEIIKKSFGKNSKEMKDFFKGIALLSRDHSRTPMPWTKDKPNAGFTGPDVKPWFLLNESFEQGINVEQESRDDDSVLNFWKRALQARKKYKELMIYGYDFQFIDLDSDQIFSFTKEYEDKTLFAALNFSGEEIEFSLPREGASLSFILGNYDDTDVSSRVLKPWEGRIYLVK

Target: T1, α-glucosidase type 1 from Saccharomyces cerevisiae (Saccharomyces cerevisiae, UniProt P53341)
T1 construct: purchased Merck Life Science (Pty) Ltd. (Sigma-Aldrich) G5003
Format: biochemical
Conditions: ratio of α-glucosidase to α-amylase IC50
Method: The assays and analyses were performed in triplicates following a method described in a previous study. […] A solution of α-glucosidase type 1 from Saccharomyces cerevisiae (0.48 u/mL, 17 μL), 100 mM phosphate buffer (pH 6.8; 50 μL) and the test sample in DMSO (17 μL) were incubated at 37 °C for 10 min. This pre-incubation was followed by addition of 2 mM p-nitrophenyl-α-D-glucopyranoside (PNP-G, 17 μL) to each of the wells containing reaction mixtures to initiate the reaction. The plate was then incubated for 30 min. at 37 °C. The five absorbance readings were recorded at a wavelength of 405 nm for each triplicate run using a Varioskan flash microplate spectrophotometer (Thermo Scientific, Waltham, MA, USA). The average values obtained from the readings were used to determine the IC50 and standard deviation values. The values were calculated by the nonlinear regression analysis using the Graph Pad Prism version 8.0.1 software (San Diego, CA, USA) and expressed as the mean SD of three distinct experiments.

| selectivity index (SI = IC50(α-glucosidase)/IC50(α-amylase)) | SMILES |
| --- | --- |
| 0.43 | COc1c(Br)c(OC)c2c(=O)cc(-c3ccc(C)cc3)oc2c1Br [3e, 6,8-Dibromo-5,7-dimethoxy-2-(p-tolyl)-4H-chromen-4-one] |
| 0.13 | COc1c(Br)c(OC)c2c(=O)cc(-c3ccc(Cl)cc3)oc2c1Br [3c, 6,8-Dibromo-2-(4-chlorophenyl)-5,7-dimethoxy-4H-chromen-4-ONE] |
